{
  "sequences": {"note": "Sequences of proteins named here, by UniProt entry; tags and fusion partners are left off. Residues count along the entry.", "UniProt P32557, 20-200": "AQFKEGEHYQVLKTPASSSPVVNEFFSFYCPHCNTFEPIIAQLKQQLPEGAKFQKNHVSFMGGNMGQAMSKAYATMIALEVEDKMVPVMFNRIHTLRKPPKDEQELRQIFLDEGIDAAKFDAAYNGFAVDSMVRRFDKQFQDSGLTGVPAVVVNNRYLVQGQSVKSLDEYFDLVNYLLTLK", "UniProt P0AEG4, 20-208": "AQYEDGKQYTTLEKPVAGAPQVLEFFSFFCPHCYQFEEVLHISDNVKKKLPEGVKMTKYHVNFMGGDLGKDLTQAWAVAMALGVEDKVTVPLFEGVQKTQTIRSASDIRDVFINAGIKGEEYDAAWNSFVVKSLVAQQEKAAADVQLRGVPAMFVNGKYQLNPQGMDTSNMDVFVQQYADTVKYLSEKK"},
  "source": "paper PMC9305425",
  "about": "(Chemmedchem, 2022)",
  "key": {"oxidized VcDsbA": {"biological_target": "T1, oxidized VcDsbA (Vibrio cholerae serotype O1, UniProt P32557)", "T1 construct": "made in house; host or cells: E. coli BL21(DE3)", "test": "biochemical", "format": "binding"}, "oxidized EcDsbA": {"biological_target": "oxidized EcDsbA (Escherichia coli, UniProt P0AEG4)", "format": "binding", "parameters": "made in house; host or cells: E. coli BL21(DE3)"}},
  "note": "pKd: −log10 of the molar value. “And” between values parts separate entries of the source, which are not always exact repeats. Equal entries are not always repeated.",
  "data": [
    {"compound": "C[C@H](CCC(=O)NCCS(=O)(=O)O)[C@H]1CC[C@H]2[C@@H]3[C@H](O)C[C@@H]4C[C@H](O)CC[C@]4(C)[C@H]3C[C@H](O)[C@]12C", "note": "[TC, sodium taurocholate]", "values": [
      {"measurement": "effect on the oxidation state of DsbA", "setting": "oxidized VcDsbA", "value": "no effect on the oxidation state"},
      {"measurement": "protein unfolding seen in HSQC spectra", "setting": "oxidized VcDsbA", "value": "did not induce protein unfolding"},
      {"measurement": "pKd", "setting": "oxidized VcDsbA; equilibrium dissociation constant (KD)", "value": "3.83 and ~3.83"},
      {"measurement": "protein unfolding seen in HSQC spectra", "setting": "oxidized EcDsbA", "value": "did not induce protein unfolding"}
    ]}
  ]
}
